A selection: hits, their analogues and other compounds. The true share with any hit is near 16%.
uPA generation: cell surface uPA generation inhibition. Potency, µM (titrated, usually from 38.3 µM), without a hit: at the highest dose activity change, negative = inhibition, most hits filed as inhibitors. hit rate 0.31% among 330,000. cell surface uPA generation assay, qHTS; active = well fitted inhibition curve with a large enough effect; inconclusive = small, poorly fitted or top-dose-only effect; inactive = no such curve, though single readings can be large or run the other way; tested in mouse RAW 264.7 cells; also: potency is read from the fitted curve at half-maximal effect; % is scaled to controls: 0 for no effect and ±100 for the full control effect; nearly all actives have a fitted effect of over 55% in size
TDP1 cell CPT: DT40-hTDP1 cell growth loss with CPT; chicken DT40 Tdp1-/-;hTDP1 cells + 20 nM CPT, ATP luminescence, 48 h; Potency, µM (series often up to 46.2 µM), without a hit: top-dose activity change, negative = growth inhibition, actives largely listed as inhibitors; hit rate 12% among 420,000; AID 686979; also: potency is read from the fitted curve at half-maximal effect; % is scaled to controls: 0 for no effect and ±100 for the full control effect; nearly all actives have a fitted effect of over 55% in size
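Cell growth measured by CellTiter-Glo luminescence after a minimum 48 h, 37 C compound exposure with 20 nM CPT in Tdp1-knockout DT40 cells stably expressing hTDP1, seeded 400/well; qHTS titration format.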
TDP1 inh: TDP1 (human) enzyme inhibition; Q9NUW8; recombinant TDP1, AlphaScreen DNA substrate cleavage; Potency, µM (highest dose often 130 µM), inactives show at the top dose activity change, negative = inhibition, usual class: inhibitors; hit rate 0.28% among 350,000; AID 485290; also: potency is read from the fitted curve at half-maximal effect; % is scaled to controls: 0 for no effect and ±100 for the full control effect; nearly all actives have a fitted effect of over 40% in size
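Here, a 5' biotin and 3' phosphotyrosine-FITC DNA oligonucleotide reports Tdp1 activity: intact substrate bridges AlphaScreen beads, while cleavage leaves a 3' phosphate and drops signal. All incubations at room temperature.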
TDP1 cell noCPT: qHTS for Inhibitors of human tyrosyl-DNA phosphodiesterase 1 (TDP1): qHTS in cells in absence of CPT. hit rate 15% among 420,000. DT40 Tdp1-/- hTDP1 cells, no CPT, ATP luminescence, 48 h. Potency, µM (series often up to 46.2 µM), for the others: top-dose activity change, negative = growth inhibition, usual class: inhibitors. AID 686978, 2013; also: potency is read from the fitted curve at half-maximal effect; % is scaled to controls: 0 for no effect and ±100 for the full control effect; nearly all actives have a fitted effect of over 55% in size
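Stably hTDP1-transfected Tdp1-null chicken DT40 cells were treated with library compounds minus camptothecin and grown for at least 48 hr at 37 °C, after which cellular ATP was quantified by luminescence.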
miR-21 reporter: raises the signal of a miR-21 reporter; AID 2288; 340,000 tested, under 10 active; Potency, µM (doses to about 38.3 µM), inactives show at the top dose reporter change, positive = more light; HeLa miR-21 FLuc reporter, luciferase, 48 h; active = well fitted rising curve with a large enough effect; inconclusive = small, poorly fitted or top-dose-only effect; inactive = no such curve, though single readings can be large or run the other way;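 note: % of control where 0% means no effect; miR-21 action dims this reporter so a rising signal means less miR-21 action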
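HeLa cells stably expressing CMV-driven firefly luciferase with a downstream miR-21 binding sequence, endogenously expressing miR-21, were treated with titrations (up to about 40uM final) for 48 hours at 37 degree Celsius. Luciferase luminescence was read after lysis.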
Starred values were filed as active, the others as inactive; ? = inconclusive; / = not tested or not shown; [ ] = another dose, or the depositor's remark. Unless noted, calls follow the shape of the dose curve; as a rule, active = well fitted curve in the direction sought with a large enough effect; inconclusive = small, poorly fitted or top-dose-only effect, or another doubt; inactive = no such curve, though single readings can be large; an effect the other way counts as inactive or inconclusive.

item | mol | uPA generation | TDP1 cell CPT | TDP1 inh
1 | Cc1nc2sc(C(=O)N(C)Cc3ccccc3)c(NC(=O)c3ccccc3)c2c(C)c1Cl | / | ? | 6%
2 | Cc1nc2sc(C(=O)NCc3ccc(Cl)cc3)c(NC(=O)c3ccccc3)c2c(C)c1C | / | 13µM* | -2%
3 | Cc1nc2sc(C(=O)N(C)c3ccccc3)c(NC(=O)c3ccccc3Cl)c2c(C)c1C | / | ? | 2%
4 | COCCN(C(=S)Nc1ccc(C)cc1C)C(C)c1cccs1 (centres undefined) | 1% | ? | -1%
5 | COCCN(C(=S)Nc1c(C)cc(C)cc1C)C(C)c1cccs1 (centres undefined) | -7% | ? | -1%
6 | Cc1cc(F)ccc1S(=O)(=O)N1CCCOC1CNC(=O)C(=O)NC1CCCC1 (centres undefined) | 2% | -5% | 0%
7 | CSc1ccc(Cl)c(C(=O)N2CCOc3ccccc32)c1 | -18% | 18µM* | 2%
8 | COc1ccc(NC(=O)COC(=O)c2cc([N+](=O)[O-])ccc2N2CCOCC2)cc1 | 1% | -21% | 5%
9 | Cc1ccc(C(=O)c2cc([N+](=O)[O-])ccc2N2CCOCC2)cc1 | -18% | 2.1µM* | 5%
10 | COc1ccc(C(=O)c2cc([N+](=O)[O-])ccc2N2CCOCC2)cc1 | -10% | 0.026µM* | 4%
11 | CCOc1ccc(C(=O)c2cc([N+](=O)[O-])ccc2N2CCOCC2)cc1 | -14% | 0.13µM* | 8%
12 | O=C(c1cc([N+](=O)[O-])ccc1N1CCOCC1)N1CCOCC1 | 1% | -13% | 0%
13 | CCc1ccc(OCC(=O)Nc2ccc(N3CCN(S(C)(=O)=O)CC3)cc2)cc1 | 1% | -10% | -2%
14 | CC(C)Cn1c(CN2C(=O)c3ccccc3C2=O)nc2ccccc2c1=O | -5% | 4% | 1%
15 | Cc1ccc(C(=O)c2cc([N+](=O)[O-])ccc2N2CCCCC2)c(C)c1 | -10% | 1µM* | 2%

item | TDP1 cell noCPT | miR-21 reporter
1 | 16µM* | 1%
2 | ? | -1%
3 | ? | 6%
4 | ? | -3%
5 | 29µM* | -2%
6 | 8% | -4%
7 | 16µM* | 10%
8 | -1% | -2%
9 | 2.1µM* | 0%
10 | 0.033µM* | 26%
11 | 0.16µM* | 21%
12 | 19% | -1%
13 | -4% | 0%
14 | -13% | 4%
15 | 0.65µM* | 16%

Additional compounds
item | mol | uPA generation | TDP1 cell CPT | TDP1 inh
16 | O=C(c1cc([N+](=O)[O-])ccc1N1CCCCC1)N1CCc2ccccc21 | -20% | 15µM* | 8%
17 | O=C(c1cc([N+](=O)[O-])ccc1Cl)N1CCc2ccccc21 | -6% | -22% | 7%
18 | COc1cc(SC)ccc1C(=O)N1CCc2ccccc21 | 1% | 21µM* | /
19 | COc1ccc(C(=O)CCC(=O)Nc2cc(C)ccc2C)cc1 | / | -3% | 1%
20 | Cc1ccc(NC(=O)CCc2c(C)nc3ncnn3c2C)cc1Cl | / | 6% | -3%
21 | Cc1cc(C)c(C(=O)CSc2n[nH]c(=O)n2C2CC2)cc1C | 1% | 11µM* | -2%
22 | O=C(CSc1n[nH]c(=O)n1C1CC1)c1ccc2c(c1)OCCO2 | -17% | -25% | -3%
23 | CC(=O)Oc1cccc(C(=O)O)c1OC(C)=O | / | 9% | 7%[56.1 µM]
24 | CC(=O)Oc1ccc2nonc2c1OC(C)=O | / | 5.6µM* | -10%
25 | CC(=O)Nc1cc(OC(C)=O)c2nonc2c1OC(C)=O | ? | ? | -3%
26 | COc1ccc(/C([O-])=C(/C(=S)Nc2ccc(C)c(C)c2)n2c[n+](C)c3ccccc32)cc1OC | / | 29µM* | 0%
27 | COc1ccc(-c2[nH]ncc2CNCCCSC)cc1F | -5% | -15% | 0%
28 | CC(=O)Nc1ccc2c(c1)Cc1cc(N3C(=O)C=CC3=O)ccc1-2 | -12% | 1µM* | /
29 | O=C1C=CC(=O)N1c1ccc2c(c1)Cc1cc(F)ccc1-2 | -8% | 1.6µM* | /
30 | O=[N+]([O-])c1ccc2c(c1)Cc1cc(F)ccc1-2 | -2% | -5% | /

item | TDP1 cell noCPT | miR-21 reporter
16 | 4.6µM* | 16%
17 | -28% | 0%
18 | ? | 3%
19 | -23% | -2%
20 | -23% | -1%
21 | 20µM* | 16%
22 | ? | -14%
23 | -5% | /
24 | 5.6µM* | /
25 | 18µM* | ?
26 | ? | -18%
27 | -5% | 3%
28 | 1.3µM* | /
29 | 2.1µM* | /
30 | ? | /

Continuation.
item | mol | uPA generation | TDP1 cell CPT | TDP1 inh
31 | COc1cccc(/C=C/c2nc(S(=O)(=O)c3ccccc3)c(N(C)C)o2)c1 | -7% | ? | 5%
32 | C=CCc1cccc(Cl)c1OCCCNC1CCCC1 | -28% | 23µM* | /
33 | CCc1c(O)nc(SCC(=O)Nc2cc(C)on2)n(-c2ccccc2)c1=O | -2% | -3% | 3%
34 | COc1ccc(C2=NN(C(=O)CN3CCCC3)C(c3ccc(OC)cc3)C2)cc1 (centres undefined) | -1% | -13% | /
35 | COc1ccc(C2CC(c3ccc4ccccc4c3)=NN2C(=O)CN2C(=O)CCC2=O)cc1 (centres undefined) | -6% | 26µM* | 5%
36 | COc1ccc(C2=NN(C(=O)CN3CCCCC3)C(c3ccc(OC)cc3)C2)cc1 (centres undefined) | 11% | 16µM* | 7%
37 | CCCn1c(CN2CCN(C(=O)c3ccco3)CC2)nc2cc(S(=O)(=O)N(C)C)ccc21 | -5% | -26% | 10%[0.505 µM]
38 | Cc1ccccc1OCC(=O)NCC(C)NC(=O)COc1ccccc1C (centres undefined) | / | -9% | 1%
39 | O=C(c1cc(S(=O)(=O)NCc2ccco2)ccc1Br)N1CCOCC1 | 2% | -1% | -9%
40 | FC(F)(F)c1ccc(N2CCN(c3cc(-c4ccccc4)nc4ncnn34)CC2)nc1 | 6% | 3.7µM* | 6%
41 | FC(F)(F)c1cccc(Nc2cc(-c3ccccc3)nc3ncnn23)c1 | 3% | -29% | /
42 | c1ccc(-c2cc(-c3ccccc3)n3ncnc3n2)cc1 | -3% | ? | 0%
43 | CC1C(=O)N2CCCc3cc(NC(=O)C4CCCCC4)cc1c32 (centres undefined) | -19% | -11% | 2%
44 | Cc1ccc(Nc2c(-c3ccc(N4CCOCC4)cc3)nc3ncccn23)c(C)c1 | 7% | ? | 10%
45 | Cc1cccc(C)c1Nc1c(-c2ccc(N3CCOCC3)cc2)nc2ncccn12 | -13% | 21µM* | 0%[12.3 µM]

item | TDP1 cell noCPT | miR-21 reporter
31 | ? | 1%
32 | 18µM* | 12%
33 | 22% | 4%
34 | -29% | -8%
35 | 23µM* | -2%
36 | ? | -4%
37 | ? | /
38 | -23% | /
39 | 17% | /
40 | 3.3µM* | -5%
41 | ? | 2%
42 | 29µM* | -3%
43 | 0% | /
44 | 16µM* | -12%
45 | 21µM* | 5%

Later entries
item | mol | uPA generation | TDP1 cell CPT | TDP1 inh
46 | Cc1ccc(Nc2ncnc3nc[nH]c23)cc1Cl | ? | -23% | -1%
47 | CCOC(=O)C1CCN(CCC(=O)Nc2ccc(Br)cc2)CC1 | 2% | ? | /
48 | O=C1N=C(N2CCOCC2)S/C1=C1\C(=O)N(Cc2ccccc2)c2ccc(Br)cc21 | / | / | 2%
49 | CCCCN1C(=O)/C(=C2\SC(N3CCCCC3)=NC2=O)c2ccccc21 | -11% | 23µM* | 14%

item | TDP1 cell noCPT | miR-21 reporter
46 | -23% | -46%
47 | -28% | 0%
48 | / | -35%
49 | ? | -29%

Pulled by structure from the entries so far:
item | mol | uPA generation | TDP1 cell CPT | TDP1 inh
49 | CCCCN1C(=O)/C(=C2\SC(N3CCCCC3)=NC2=O)c2ccccc21 | -11% | 23µM* | 14%
46 | Cc1ccc(Nc2ncnc3nc[nH]c23)cc1Cl | ? | -23% | -1%
47 | CCOC(=O)C1CCN(CCC(=O)Nc2ccc(Br)cc2)CC1 | 2% | ? | /
48 | O=C1N=C(N2CCOCC2)S/C1=C1\C(=O)N(Cc2ccccc2)c2ccc(Br)cc21 | / | / | 2%

item | TDP1 cell noCPT | miR-21 reporter
49 | ? | -29%
46 | -23% | -46%
47 | -28% | 0%
48 | / | -35%

From PubChem BioAssay
